Literature values, collected in PMC3726369.

Sequences of proteins named here, by UniProt entry; tags and fusion partners are left off. Residues count along the entry.
UniProt P23945, 18-695: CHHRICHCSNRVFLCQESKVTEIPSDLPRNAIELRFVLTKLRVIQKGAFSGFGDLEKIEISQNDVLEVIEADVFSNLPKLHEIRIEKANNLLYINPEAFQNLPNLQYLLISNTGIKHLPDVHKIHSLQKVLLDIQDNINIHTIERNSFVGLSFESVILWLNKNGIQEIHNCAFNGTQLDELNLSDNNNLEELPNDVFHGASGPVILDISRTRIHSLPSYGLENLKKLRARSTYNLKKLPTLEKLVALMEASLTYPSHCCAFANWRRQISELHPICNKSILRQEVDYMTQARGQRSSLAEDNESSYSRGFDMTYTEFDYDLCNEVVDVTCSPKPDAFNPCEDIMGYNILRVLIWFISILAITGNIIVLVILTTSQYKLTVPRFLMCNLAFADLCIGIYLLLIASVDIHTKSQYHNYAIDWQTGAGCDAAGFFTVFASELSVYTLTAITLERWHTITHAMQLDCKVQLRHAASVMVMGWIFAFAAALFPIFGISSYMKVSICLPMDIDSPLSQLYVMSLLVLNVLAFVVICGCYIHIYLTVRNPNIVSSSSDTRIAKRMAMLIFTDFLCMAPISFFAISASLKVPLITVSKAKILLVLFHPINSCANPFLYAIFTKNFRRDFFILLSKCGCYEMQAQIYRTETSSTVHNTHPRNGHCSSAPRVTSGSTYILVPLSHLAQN
UniProt P01215, 25-116: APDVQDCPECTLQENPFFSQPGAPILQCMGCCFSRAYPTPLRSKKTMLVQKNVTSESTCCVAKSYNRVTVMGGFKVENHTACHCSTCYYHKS

How the values were obtained:
[1] = biological target: FSH receptor (Homo sapiens) (UniProt P23945); assay: given as Ka
[2] = biological target: FSH receptor (Homo sapiens) (UniProt P23945)

- pKd [1]: 9.48
- pKd [2]: 9.82 and 9.03
Substance: FSH (from UniProt P01215)

pKd: −log10 of the molar value. “And” between values parts separate entries of the source, which are not always exact repeats. Equal entries are not always repeated. Where two headings read alike, the source gives them in different places.
